Data taken from US20260384449A1, “MACROCYCLIC AMINOPYRIDINE COMPOUNDS AS EGFR INHIBITORS” (published 2026).

Sequences of proteins named here, by UniProt entry; tags and fusion partners are left off. A change or cut given only in a name is not applied to a line headed by its entry. Residues count along the entry.
UniProt P00533, 25-1210 C797S/L858R limits assumed: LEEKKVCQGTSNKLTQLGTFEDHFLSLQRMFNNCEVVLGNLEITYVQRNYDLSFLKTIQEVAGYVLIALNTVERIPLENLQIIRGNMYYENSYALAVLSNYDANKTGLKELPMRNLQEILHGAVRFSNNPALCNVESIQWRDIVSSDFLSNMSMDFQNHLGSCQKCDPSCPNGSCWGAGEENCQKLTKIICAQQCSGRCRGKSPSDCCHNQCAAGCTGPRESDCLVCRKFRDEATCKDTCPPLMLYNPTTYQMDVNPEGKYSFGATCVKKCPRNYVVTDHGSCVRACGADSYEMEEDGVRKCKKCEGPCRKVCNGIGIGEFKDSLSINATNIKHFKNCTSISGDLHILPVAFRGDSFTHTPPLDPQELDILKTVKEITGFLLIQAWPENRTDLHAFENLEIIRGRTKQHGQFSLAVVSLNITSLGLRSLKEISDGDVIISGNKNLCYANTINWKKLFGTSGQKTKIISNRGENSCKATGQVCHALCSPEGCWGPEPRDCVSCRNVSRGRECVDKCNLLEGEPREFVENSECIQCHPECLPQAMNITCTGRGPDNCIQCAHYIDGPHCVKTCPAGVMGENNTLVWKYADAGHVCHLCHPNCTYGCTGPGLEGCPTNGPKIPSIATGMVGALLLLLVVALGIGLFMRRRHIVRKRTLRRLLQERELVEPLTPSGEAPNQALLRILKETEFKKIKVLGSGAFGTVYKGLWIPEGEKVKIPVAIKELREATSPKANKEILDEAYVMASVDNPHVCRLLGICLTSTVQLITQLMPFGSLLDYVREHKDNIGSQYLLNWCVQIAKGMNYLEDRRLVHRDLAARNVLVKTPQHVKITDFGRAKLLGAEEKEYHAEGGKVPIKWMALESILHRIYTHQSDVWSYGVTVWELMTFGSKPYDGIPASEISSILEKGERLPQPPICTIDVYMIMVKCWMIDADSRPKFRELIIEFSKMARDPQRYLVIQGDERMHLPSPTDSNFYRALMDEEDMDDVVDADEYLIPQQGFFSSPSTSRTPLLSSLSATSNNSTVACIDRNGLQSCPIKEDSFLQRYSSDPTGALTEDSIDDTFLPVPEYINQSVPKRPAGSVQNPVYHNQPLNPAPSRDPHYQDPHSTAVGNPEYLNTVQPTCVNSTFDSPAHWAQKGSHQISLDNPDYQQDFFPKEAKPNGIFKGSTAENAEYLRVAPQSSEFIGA
UniProt O95819, whole entry: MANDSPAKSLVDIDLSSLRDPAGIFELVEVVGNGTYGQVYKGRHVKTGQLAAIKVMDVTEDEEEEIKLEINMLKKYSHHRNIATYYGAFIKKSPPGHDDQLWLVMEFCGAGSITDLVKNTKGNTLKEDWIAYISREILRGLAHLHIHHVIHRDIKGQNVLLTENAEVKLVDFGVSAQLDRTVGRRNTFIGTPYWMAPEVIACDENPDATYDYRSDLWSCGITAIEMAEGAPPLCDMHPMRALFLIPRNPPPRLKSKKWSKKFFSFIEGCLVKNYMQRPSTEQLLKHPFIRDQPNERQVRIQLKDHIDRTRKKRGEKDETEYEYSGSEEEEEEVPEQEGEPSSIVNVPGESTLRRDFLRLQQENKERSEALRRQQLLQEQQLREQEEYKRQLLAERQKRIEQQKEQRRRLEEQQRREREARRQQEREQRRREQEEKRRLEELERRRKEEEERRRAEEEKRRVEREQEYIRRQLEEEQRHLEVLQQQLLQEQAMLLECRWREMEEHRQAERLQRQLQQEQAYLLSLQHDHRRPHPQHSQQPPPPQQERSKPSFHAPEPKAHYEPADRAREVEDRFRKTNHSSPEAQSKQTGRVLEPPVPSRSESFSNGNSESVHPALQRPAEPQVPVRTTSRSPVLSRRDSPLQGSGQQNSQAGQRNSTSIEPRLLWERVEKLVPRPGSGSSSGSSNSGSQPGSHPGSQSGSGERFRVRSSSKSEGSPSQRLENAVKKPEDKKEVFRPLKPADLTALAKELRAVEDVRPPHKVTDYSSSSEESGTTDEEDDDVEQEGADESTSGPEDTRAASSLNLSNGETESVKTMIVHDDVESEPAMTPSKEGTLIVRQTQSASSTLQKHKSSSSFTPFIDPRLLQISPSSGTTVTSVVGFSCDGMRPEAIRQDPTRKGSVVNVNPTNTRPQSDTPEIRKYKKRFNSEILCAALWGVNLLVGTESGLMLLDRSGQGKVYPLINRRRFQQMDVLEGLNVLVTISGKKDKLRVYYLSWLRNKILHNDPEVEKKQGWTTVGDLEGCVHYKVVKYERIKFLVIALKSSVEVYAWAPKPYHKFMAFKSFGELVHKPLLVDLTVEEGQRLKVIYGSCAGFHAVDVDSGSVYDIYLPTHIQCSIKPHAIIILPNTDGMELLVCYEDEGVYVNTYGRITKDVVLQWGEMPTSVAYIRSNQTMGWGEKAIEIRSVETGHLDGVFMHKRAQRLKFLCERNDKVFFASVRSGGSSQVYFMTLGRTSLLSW
UniProt Q9NWZ3, whole entry: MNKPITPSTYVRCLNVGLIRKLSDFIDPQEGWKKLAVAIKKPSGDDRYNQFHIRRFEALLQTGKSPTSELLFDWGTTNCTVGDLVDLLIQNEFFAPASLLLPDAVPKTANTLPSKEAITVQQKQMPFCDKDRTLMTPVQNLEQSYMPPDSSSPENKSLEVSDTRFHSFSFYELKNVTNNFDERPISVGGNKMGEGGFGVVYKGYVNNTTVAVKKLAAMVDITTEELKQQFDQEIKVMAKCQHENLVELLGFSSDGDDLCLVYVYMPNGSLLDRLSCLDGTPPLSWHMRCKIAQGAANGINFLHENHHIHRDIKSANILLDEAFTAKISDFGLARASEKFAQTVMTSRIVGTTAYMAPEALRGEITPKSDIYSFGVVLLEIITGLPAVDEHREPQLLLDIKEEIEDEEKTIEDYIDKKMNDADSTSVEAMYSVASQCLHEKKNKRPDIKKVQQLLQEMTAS
UniProt P36888, 27-993 limits assumed: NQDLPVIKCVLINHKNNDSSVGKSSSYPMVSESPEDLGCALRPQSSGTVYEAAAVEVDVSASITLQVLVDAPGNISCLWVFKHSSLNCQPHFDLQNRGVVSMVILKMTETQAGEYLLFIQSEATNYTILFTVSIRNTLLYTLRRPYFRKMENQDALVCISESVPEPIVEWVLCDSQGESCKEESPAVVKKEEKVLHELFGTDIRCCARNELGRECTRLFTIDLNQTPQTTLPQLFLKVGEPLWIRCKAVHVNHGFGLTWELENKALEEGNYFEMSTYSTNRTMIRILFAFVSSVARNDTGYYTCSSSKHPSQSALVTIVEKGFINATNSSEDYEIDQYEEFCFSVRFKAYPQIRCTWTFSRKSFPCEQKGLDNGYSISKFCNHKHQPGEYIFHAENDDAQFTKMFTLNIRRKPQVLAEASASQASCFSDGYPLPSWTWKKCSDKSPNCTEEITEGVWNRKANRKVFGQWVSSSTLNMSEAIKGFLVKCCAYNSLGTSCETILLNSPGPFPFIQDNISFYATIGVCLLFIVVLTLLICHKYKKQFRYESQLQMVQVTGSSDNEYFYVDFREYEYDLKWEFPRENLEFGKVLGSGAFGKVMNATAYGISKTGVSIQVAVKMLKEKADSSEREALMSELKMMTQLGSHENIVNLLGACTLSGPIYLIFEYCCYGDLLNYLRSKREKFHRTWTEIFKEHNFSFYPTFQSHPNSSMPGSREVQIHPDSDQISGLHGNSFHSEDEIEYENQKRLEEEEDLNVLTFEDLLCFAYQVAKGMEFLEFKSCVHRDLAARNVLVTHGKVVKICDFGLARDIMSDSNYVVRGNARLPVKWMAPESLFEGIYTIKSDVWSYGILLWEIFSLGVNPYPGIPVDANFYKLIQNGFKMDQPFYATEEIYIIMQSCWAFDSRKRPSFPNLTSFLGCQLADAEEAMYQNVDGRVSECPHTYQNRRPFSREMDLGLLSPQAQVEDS
UniProt P06239, whole entry: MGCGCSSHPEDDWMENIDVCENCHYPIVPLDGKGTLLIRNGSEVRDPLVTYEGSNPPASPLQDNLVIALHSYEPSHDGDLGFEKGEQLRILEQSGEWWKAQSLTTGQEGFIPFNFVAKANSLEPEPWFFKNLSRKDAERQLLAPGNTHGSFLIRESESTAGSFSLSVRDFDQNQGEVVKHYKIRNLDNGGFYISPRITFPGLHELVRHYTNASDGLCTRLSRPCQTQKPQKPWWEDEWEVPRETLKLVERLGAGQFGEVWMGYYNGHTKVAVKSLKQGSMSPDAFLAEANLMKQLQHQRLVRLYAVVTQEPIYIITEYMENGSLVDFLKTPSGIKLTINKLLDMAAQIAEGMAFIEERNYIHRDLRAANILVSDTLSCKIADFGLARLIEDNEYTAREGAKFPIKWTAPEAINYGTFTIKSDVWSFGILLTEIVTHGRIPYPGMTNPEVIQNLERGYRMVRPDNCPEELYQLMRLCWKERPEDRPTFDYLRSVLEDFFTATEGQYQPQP
UniProt O60674, whole entry: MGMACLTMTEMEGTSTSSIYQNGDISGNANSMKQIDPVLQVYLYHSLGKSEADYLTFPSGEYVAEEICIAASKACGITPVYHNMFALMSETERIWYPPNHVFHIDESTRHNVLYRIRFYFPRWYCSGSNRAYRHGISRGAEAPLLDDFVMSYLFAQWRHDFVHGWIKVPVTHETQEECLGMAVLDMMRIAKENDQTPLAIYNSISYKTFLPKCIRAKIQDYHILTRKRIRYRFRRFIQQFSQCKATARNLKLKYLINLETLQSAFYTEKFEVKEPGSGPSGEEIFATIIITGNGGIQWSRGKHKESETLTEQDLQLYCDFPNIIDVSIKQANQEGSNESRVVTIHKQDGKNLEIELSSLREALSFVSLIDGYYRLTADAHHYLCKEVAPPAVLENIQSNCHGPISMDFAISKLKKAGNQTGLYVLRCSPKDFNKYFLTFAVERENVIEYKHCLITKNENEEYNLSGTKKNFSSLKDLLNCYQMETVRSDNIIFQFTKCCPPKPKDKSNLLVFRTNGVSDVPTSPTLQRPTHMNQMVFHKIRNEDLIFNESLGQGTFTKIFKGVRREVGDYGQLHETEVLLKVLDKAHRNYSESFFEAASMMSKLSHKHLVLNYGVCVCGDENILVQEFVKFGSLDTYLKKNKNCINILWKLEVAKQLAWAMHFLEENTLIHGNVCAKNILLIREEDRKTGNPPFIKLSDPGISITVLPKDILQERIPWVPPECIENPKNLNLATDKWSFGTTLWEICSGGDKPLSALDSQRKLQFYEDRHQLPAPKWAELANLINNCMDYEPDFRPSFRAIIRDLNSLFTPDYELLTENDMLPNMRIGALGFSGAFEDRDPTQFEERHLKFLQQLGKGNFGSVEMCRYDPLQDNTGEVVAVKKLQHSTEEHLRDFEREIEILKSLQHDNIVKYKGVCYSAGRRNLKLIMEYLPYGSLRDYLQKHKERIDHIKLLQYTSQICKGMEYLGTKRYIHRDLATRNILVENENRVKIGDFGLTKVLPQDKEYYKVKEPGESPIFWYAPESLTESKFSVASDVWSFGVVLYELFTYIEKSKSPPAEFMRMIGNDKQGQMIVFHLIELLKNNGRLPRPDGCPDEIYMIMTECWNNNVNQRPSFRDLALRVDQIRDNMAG

How the values were obtained:
EGFR WT = EGFR WT (Homo sapiens, UniProt P00533); test: Biochemical EGFR kinase inhibition (Lance Ultra TR-FRET), wildtype; conditions: read-out: EGFR WT IC50; ATP at Km
[1] = target: EGFR LRTMCS (L858R/T790M/C797S) (Homo sapiens, UniProt P00533, C797S/L858R/T790M); test: Biochemical EGFR kinase inhibition (Lance Ultra TR-FRET), L858R/T790M/C797S; conditions: read-out: EGFR LRTMCS IC50
MAP4K4 (HGK) = MAP4K4 (HGK) (Homo sapiens, UniProt O95819); test: Kinase selectivity (Lance Ultra TR-FRET), MAP4K4 (HGK); conditions: read-out: MAP4K4 (HGK) IC50
IRAK4 = IRAK4 (Homo sapiens, UniProt Q9NWZ3); test: Kinase selectivity (Lance Ultra TR-FRET), IRAK4; conditions: read-out: IRAK4 IC50
FLT3 = FLT3 (Homo sapiens, UniProt P36888); test: Kinase selectivity (Lance Ultra TR-FRET), FLT3; conditions: read-out: FLT3 IC50
[2] = target: EGFR D19TMCS (del19/T790M/C797S) (Homo sapiens, UniProt P00533, C797S/DEL746-750/T790M); test: Biochemical EGFR kinase inhibition (Lance Ultra TR-FRET), del19/T790M/C797S; conditions: read-out: EGFR D19TMCS IC50
EGFR D19CS (del19/C797S) = EGFR D19CS (del19/C797S) (Homo sapiens, UniProt P00533, C797S/DEL746-750); test: Biochemical EGFR kinase inhibition (Lance Ultra TR-FRET), del19/C797S; conditions: read-out: EGFR D19CS IC50
LCK = LCK (Homo sapiens, UniProt P06239); test: Kinase selectivity (Lance Ultra TR-FRET), LCK; conditions: read-out: LCK IC50
EGFR LRCS (L858R/C797S) = EGFR LRCS (L858R/C797S) (Homo sapiens, UniProt P00533, C797S/L858R); test: Biochemical EGFR kinase inhibition (Lance Ultra TR-FRET), L858R/C797S; conditions: read-out: EGFR LRCS IC50
JAK2 = JAK2 (Homo sapiens, UniProt O60674); test: Kinase selectivity (Lance Ultra TR-FRET), JAK2; conditions: read-out: JAK2 IC50

| IC50 (EGFR WT) [nM] | IC50 ([1]; 1 mM ATP) [nM] | IC50 ([1]; ATP at Km) [nM] | IC50 (MAP4K4 (HGK); 1 mM ATP) [nM] | IC50 (MAP4K4 (HGK); ATP at Km) [nM] | IC50 (IRAK4; 1 mM ATP) [nM] | IC50 (IRAK4; ATP at Km) [nM] | IC50 (FLT3; 1 mM ATP) [nM] | IC50 (FLT3; ATP at Km) [nM] | IC50 ([2]; 1 mM ATP) [nM] | IC50 ([2]; ATP at Km) [nM] | IC50 (EGFR D19CS (del19/C797S); 1 mM ATP) [nM] | IC50 (EGFR D19CS (del19/C797S); ATP at Km) [nM] | IC50 (LCK; 1 mM ATP) [nM] | IC50 (LCK; ATP at Km) [nM] | IC50 (EGFR LRCS (L858R/C797S); 1 mM ATP) [nM] | IC50 (EGFR LRCS (L858R/C797S); ATP at Km) [nM] | IC50 (JAK2; 1 mM ATP) [nM] | IC50 (JAK2; ATP at Km) [nM] | SMILES |
| --- | --- | --- | --- | --- | --- | --- | --- | --- | --- | --- | --- | --- | --- | --- | --- | --- | --- | --- | --- |
| < 10 | < 10 | < 10 | 95.1 | 21.2 | > 10000 | > 10000 | > 10000 | 706 | < 10 | < 10 | < 10 | < 10 | > 10000 | > 10000 | 10 to 100 | < 10 | > 10000 | 8820 | Cc1nn(C)c2c1-c1nccc(n1)Nc1cc(c(C#Cc3cnn(C)c3)cn1)N[C@@H](C)CCO2 |
| < 10 | 10 to 100 | < 10 | 37.4 | 12.2 | > 10000 | > 10000 | > 10000 | > 10000 | < 10 | < 10 | < 10 | < 10 | > 10000 | > 10000 | 100 to 1000 | 10 to 100 | > 10000 | > 10000 | Cc1nn(C)c2c1-c1nccc(n1)Nc1cc(c(C#Cc3cnn(C)c3C3CC3)cn1)N[C@@H](C)CCO2 |
| 10 to 100 | < 10 | < 10 | 52 | 19.6 | > 10000 | > 10000 | > 10000 | 2120 | < 10 | < 10 | 10 to 100 | < 10 | > 10000 | > 10000 | 100 to 1000 | 10 to 100 | > 10000 | > 10000 | Cc1nn(C)c2c1-c1nccc(n1)Nc1cc(c(C#Cc3cnn(CC(F)(F)F)c3)cn1)N[C@@H](C)CCO2 |

Like-named read-outs stand apart in the source and are kept apart here.
